The nature of this experiment: Compound cytotoxicity measured by an ATP content assay as a counter-screen for lead compounds in human iPSC derived neural progenitor cells (hNPCs). The conditions noted are these: human iPSC-derived NPC viability, ATP luminescence; at 46.1 µM (top of the series). The method, then:
National Center for Advancing Translational Sciences [NCATS] Johns Hopkins University School of Medicine Florida State University Assay Overview: Many compounds can cause cytotoxicity at high compound concentrations. […] The compound cytotoxicity may also cause side effects or toxicity in human. Thus, the compound cytotoxicity needs to be measured in each cell type and each compound incubation time - same as these in the compound screening assay. The compound cytotoxicity can be measured by cell viability assays such as the ATP content assay. We use an ATP content assay kit for cell viability measurement. It measures ATP content (level) in human iPSC derived neural progenitor cells (hNPCs) using a luminescence readout that is proportional to viable cell numbers. Decrease in the luminescence signal after the compound treatment indicates reduced cell viability and cell death caused by compound treatment.
Assay Protocol Summary: The medium for hNPCs consists of DMEM/F12, N2 supplement (ThermoFisher, Cat.# 17502048), NEAA (ThermoFisher, Cat. # 11140050), 2 ug/ml heparin, 2 uM cyclopamine, and B27 (ThermoFisher, Cat. # 17504044). The ATP content assay kit (PerkinElmer, Cat.# 6016731) was used to determine cell viability. […] After incubation at room temperature for 10 minutes, the luminescence intensity in assay plates was measured using a ViewLux plate reader (PerkinElmer). […]
On the technique in general: A counterscreen serves to expose hits that act by an unwanted route or on another target.

This is an account of results in PubChem BioAssay AID1224860 (National Center for Advancing Translational Sciences (NCATS), 2016).

This is a selection; strong and weak results do not stand in their true shares. Records with an inconclusive call do not appear. Activity calls are given as the source filed them. Calls come from the whole dose curve; as a rule, active = well fitted cell-killing curve with a large enough effect; inconclusive = small, poorly fitted or top-dose-only effect; inactive = flat fitted curve, though single readings scatter.

With `CCOP(=O)(CC)Oc1ccc([N+](=O)[O-])cc1` (configuration not stated), the activity, negative = cytotoxicity is inactive: 4.11%.

Turning to `C/C1=C2N=C(/C=C3N=C(/C(C)=C4\[N-][C@@](C)([C@@H]5N=C1[C@](C)(CCC(=O)NC[C@@H](C)OP(=O)([O-])O[C@H]1[C@@H](O)[C@@H](n6cnc7cc(C)c(C)cc76)O[C@@H]1CO)[C@H]5CC(N)=O)[C@@](C)(CC(N)=O)[C@@H]4CCC(N)=O)[C@@](C)(CC(N)=O)[C@@H]\3CCC(N)=O)C(C)(C)[C@@H]/2CCC(N)=O.[C-]#N.[Co+3]`, the activity, negative = cytotoxicity was inactive: -14.3%.
